Measured values taken from PubChem BioAssay (Tox21).
Several values for one entry are separate records, joined by “and”; a condition that tells them apart may be missing. Equal values may be shown once. This is a selection; strong and weak results do not stand in their true shares. Records with an inconclusive call do not appear. A structure can be active in one record and inactive in another. Activity calls are given as the source filed them. Unless noted, the call rests on the fitted dose curve.

Amino acid sequences for entries named in this document (tags omitted).
UniProt P07550, whole entry: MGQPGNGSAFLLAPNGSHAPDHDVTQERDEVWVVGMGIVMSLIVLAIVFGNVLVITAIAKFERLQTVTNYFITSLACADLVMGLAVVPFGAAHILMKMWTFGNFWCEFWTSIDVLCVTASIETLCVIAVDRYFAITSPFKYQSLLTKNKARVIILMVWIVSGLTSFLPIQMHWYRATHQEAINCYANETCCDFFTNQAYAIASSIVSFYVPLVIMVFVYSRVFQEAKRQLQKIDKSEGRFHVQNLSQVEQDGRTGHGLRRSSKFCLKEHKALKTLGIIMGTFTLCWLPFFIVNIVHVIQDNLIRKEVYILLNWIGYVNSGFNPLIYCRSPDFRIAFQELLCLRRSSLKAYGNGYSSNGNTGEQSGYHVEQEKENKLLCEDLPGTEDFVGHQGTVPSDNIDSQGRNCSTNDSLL
UniProt P14416, whole entry: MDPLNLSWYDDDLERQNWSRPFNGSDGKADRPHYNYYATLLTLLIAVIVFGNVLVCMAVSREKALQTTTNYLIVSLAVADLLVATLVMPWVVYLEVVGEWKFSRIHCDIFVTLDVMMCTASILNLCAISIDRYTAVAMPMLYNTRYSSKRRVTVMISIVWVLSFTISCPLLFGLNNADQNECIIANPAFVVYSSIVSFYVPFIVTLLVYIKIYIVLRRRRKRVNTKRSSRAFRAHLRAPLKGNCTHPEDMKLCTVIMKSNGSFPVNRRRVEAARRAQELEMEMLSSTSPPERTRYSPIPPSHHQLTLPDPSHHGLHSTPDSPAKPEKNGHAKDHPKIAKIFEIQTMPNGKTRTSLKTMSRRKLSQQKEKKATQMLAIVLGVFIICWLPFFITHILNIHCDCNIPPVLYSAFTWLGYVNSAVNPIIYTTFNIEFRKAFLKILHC

Key:
[1] = p53 small molecule agonists, cell-based qHTS assay: qHTS cell viability counter screen (AID 1963581); details: p53RE-bla HCT-116 viability, ATP luminescence, 16 h; at 66 µM (top of the series) unless noted; further: nearly all actives have a fitted effect of over 45% in size
Outline: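 In the same plates used for the p53 bla reporter, HCT-116 cells given compounds for 16 h at 37 C received CellTiter-Glo; luminescence was recorded 30 min later at room temperature.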

[2] = target: Beta-2 adrenergic receptor (Homo sapiens) (UniProt P07550); assay: Adrenergic beta2 receptor (ADRB2) small molecule antagonists, cell-based qHTS assay (AID 1963592); details: CHO-ADRB2 cells, isoproterenol-stimulated cAMP HTRF ratio, 0.5 h; further: nearly all actives have a fitted effect of over 50% in size
Outline: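 Cells (CHO, stable ADRB2 overexpression) incubated 18-20hr at 37C; compounds added from DMSO; agonist mix (1nM isoproterenol, 100uM IBMX, 25uM Ro-20-1724) added; 0.5hr RT; d2-cAMP and anti-cAMP-cryptate added; 1hr RT; 665/615 nm read.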

[3] = target: Beta-2 adrenergic receptor (Homo sapiens) (UniProt P07550); assay: Adrenergic beta2 receptor (ADRB2) small molecule agonists, cell-based qHTS assay (AID 1963593); details: CHO-ADRB2 cells, cAMP HTRF, 30 min; at 92.4 µM (top of the series) unless noted;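 further: CHO cells stably overexpressing human ADRB2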
Outline: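 CHO cells stably over-expressing ADRB2 were plated overnight at 37C, then dosed with compounds plus a stimulation mix containing 100uM IBMX and 25uM Ro-20-1724 for 0.5hr at room temperature. cAMP was measured by HTRF competition, 1hr.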

[4] = target: D(2) dopamine receptor (Homo sapiens) (UniProt P14416); assay: Dopamine D2 receptor (DRD2) small molecule agonists, cell-based qHTS assay (AID 1963594); details: HEK293-DRD2 cAMP HTRF, agonist mode, 30 min; further: nearly all actives have a fitted effect of over 35% in size
Outline: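 HEK293 cells stably expressing human DRD2, pre-treated with PDE inhibitor Ro20-1724 (0.1 mM final) and compound 10 min at room temperature, then stimulated with NKH477 (200nM […]) for 30 min. cAMP read by HTRF (665/620 nm).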

[5] = target: D(2) dopamine receptor (Homo sapiens) (UniProt P14416); assay: Dopamine D2 receptor (DRD2) small molecule antagonists, cell-based qHTS assay (AID 1963595; active means well fitted inhibition curve with a large enough effect in the signal ratio in the repeat runs, with a control signal flat; the % refers to the signal ratio); details: HEK293-DRD2 cAMP HTRF antagonist mode
Outline: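 Antagonism was scored as restored cAMP in HEK293-DRD2 cells. These cells were stimulated with 200 nM NKH477 and 12 nM quinpirole for 30 min at room temperature, in the presence of 0.1 mM Ro20-1724.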

[6] = p53 small molecule agonists, cell-based qHTS assay with rat liver microsomes (AID 1963578); details: HCT-116 p53RE-bla, beta-lactamase ratio, 16 h
Outline: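 Each plate received p53RE-bla cells, then compound, then rat liver microsomes and NADPH (both 0.5 mg/mL final). Plates were held 16 h at 37 C, and beta-lactamase activity was detected with LiveBLAzer over 2 h.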

[7] = p53 small molecule agonists, cell-based qHTS assay (AID 1963582; active means well fitted activation curve with a large enough effect in the signal ratio in the repeat runs, not every such curve was filed as active; the % refers to the signal ratio; further: potency means the concentration at half of the fitted maximal effect)
Outline: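 Compounds are pin-transferred in DMSO onto p53RE-bla cells and incubated 16 h at 37 C. The B/G FRET beta-lactamase substrate is then applied for 2 h at RT and fluorescence recorded.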

[8] = at 92.4 µM (top of the series) unless noted
On the % scale 0 is the no-effect control and ±100 the full control effect.

O=[N+]([O-])[O-].[NH4+]
inactive: activity change, negative = cytotoxicity [1] 2.41% and -0.62% | activity change, negative = inhibition ([2]; at 92.4 µM (top of the series)) -4.3% and -12% | activation [3] 8.72% | activation [4, 8] 2.05% and 17% | activity change, negative = inhibition [5, 8] 7.16% and -0.381%

CCOP(=O)(CC)OCC
inactive: activation ([6]; at 66 µM (top of the series)) -0.2% | activity change, negative = cytotoxicity [1] 0.595% | Potency [7] | activity change, negative = inhibition ([2]; at 92.4 µM (top of the series)) -0.121% | activation [4, 8] -3.58% | activity change, negative = inhibition [5, 8] 4.54%

CP(=O)(O)OCCC[Si](O)(O)O
inactive: activation ([6]; at 66 µM (top of the series)) 1.17% | activity change, negative = cytotoxicity [1] -8.84% | activity change, negative = inhibition ([2]; at 92.4 µM (top of the series)) -1.33% | activation [4, 8] 13.9% | activity change, negative = inhibition [5, 8] -2.75%

Cc1cccc([N+](=O)[O-])c1[N+](=O)[O-]
inactive: activation ([6]; at 30.3 µM (top of the series)) 3.77% | Potency [7] | activity change, negative = inhibition [5, 8] 3.05% [at 42.5 µM]

N=C(N)N[N+](=O)[O-]
inactive: activation ([6]; at 66 µM (top of the series)) 2.6% | activity change, negative = cytotoxicity [1] 4.43% | Potency [7] | activity change, negative = inhibition ([2]; at 92.4 µM (top of the series)) -4.7% | activation [3] -13.1% | activation [4, 8] -2.78% | activity change, negative = inhibition [5, 8] -5.34%

O=[N+]([O-])OCC(CO[N+](=O)[O-])(CO[N+](=O)[O-])CO[N+](=O)[O-]
inactive: activation ([6]; at 66 µM (top of the series)) -1.84% | activity change, negative = cytotoxicity [1] 0.09% | Potency [7] | activity change, negative = inhibition ([2]; at 92.4 µM (top of the series)) -1.48% | activation [4, 8] -3.38% | activity change, negative = inhibition [5, 8] -2.6%

Cc1c([N+](=O)[O-])cccc1[N+](=O)[O-]
inactive: activation ([6]; at 66 µM (top of the series)) 0.244% and -3.92% | activity change, negative = cytotoxicity [1] -12.8% and -2.54% | Potency [7] | activity change, negative = inhibition ([2]; at 92.4 µM (top of the series)) 6.82% and 1.14% | activation [3] 22.2% | activation [4, 8] -2.6% and -2.06% | activity change, negative = inhibition [5, 8] 5.7% and 4.24%

OCCSCCO
inactive: activation ([6]; at 30.3 µM (top of the series)) -0.514% | activation ([6]; at 66 µM (top of the series)) 0.331% | activity change, negative = cytotoxicity [1] 4.14% [at 30.3 µM] | activity change, negative = inhibition ([2]; at 42.5 µM (top of the series)) 5.82% | activity change, negative = inhibition ([2]; at 92.4 µM (top of the series)) -3.81% | activation [3] 0.391% [at 42.5 µM] | activation ([4]; at 42.5 µM (top of the series)) 16.9% | activation ([4]; at 92.4 µM (top of the series)) 3.86% | activity change, negative = inhibition ([5]; at 42.5 µM (top of the series)) -13.4% | activity change, negative = inhibition ([5]; at 92.4 µM (top of the series)) 1.76%
41.5 µM (active) and inactive: Potency [7]

CCN(CC)CCCl
inactive: activation ([6]; at 66 µM (top of the series)) 0.502% | activity change, negative = cytotoxicity [1] 25.3% | Potency [7] | activity change, negative = inhibition ([2]; at 92.4 µM (top of the series)) 2.3% | activation [4, 8] -1.04% | activity change, negative = inhibition [5, 8] -0.376%

CC(C)OP(C)(=O)OC(C)C
inactive: activation ([6]; at 66 µM (top of the series)) 0.375% and -0.0373% | activity change, negative = cytotoxicity [1] -8.46% and -22.1% | Potency [7] | activity change, negative = inhibition ([2]; at 92.4 µM (top of the series)) -4.77% and 0.556% | activation [4, 8] 1.09% and -26.1% | activity change, negative = inhibition [5, 8] 7.23% and -15%

N#CBr
inactive: activation ([6]; at 66 µM (top of the series)) -3.78% | activity change, negative = cytotoxicity [1] -1.4% | Potency [7] | activity change, negative = inhibition ([2]; at 92.4 µM (top of the series)) -2.25% | activation [3] 2.15% | activation [4, 8] -2.13% | activity change, negative = inhibition [5, 8] 0.733%

C/C1=C2N=C(/C=C3N=C(/C(C)=C4\[N-][C@@](C)([C@@H]5N=C1[C@](C)(CCC(=O)NC[C@@H](C)OP(=O)([O-])O[C@H]1[C@@H](O)[C@@H](n6cnc7cc(C)c(C)cc76)O[C@@H]1CO)[C@H]5CC(N)=O)[C@@](C)(CC(N)=O)[C@@H]4CCC(N)=O)[C@@](C)(CC(N)=O)[C@@H]\3CCC(N)=O)C(C)(C)[C@@H]/2CCC(N)=O.[C-]#N.[Co+3]
inactive: activation ([6]; at 30.3 µM (top of the series)) 4.42% | activity change, negative = cytotoxicity [1] -2.48% [at 30.3 µM] | Potency [7] | activity change, negative = inhibition ([2]; at 42.5 µM (top of the series)) 4.82% | activation [4, 8] 1.97% [at 42.5 µM] | activity change, negative = inhibition [5, 8] 3.2% [at 42.5 µM]

Nc1cc([N+](=O)[O-])cc([N+](=O)[O-])c1O
inactive: activation ([6]; at 66 µM (top of the series)) -1.27% | activity change, negative = cytotoxicity [1] -15.6% | activation [3] -8.75%

CN(C)CCCl
inactive: activation ([6]; at 66 µM (top of the series)) 0.727% | activity change, negative = cytotoxicity [1] -1.57% | Potency [7] | activity change, negative = inhibition ([2]; at 92.4 µM (top of the series)) -4.87% | activation [3] 0.23% | activation [4, 8] -0.437% | activity change, negative = inhibition [5, 8] 3.5%

CCOP(=O)(CC)Oc1ccc([N+](=O)[O-])cc1 (stereo not given)
inactive: activity change, negative = cytotoxicity [1] -11.4% [at 30.3 µM] | Potency [7] | activity change, negative = inhibition ([2]; at 42.5 µM (top of the series)) 3.13% | activation [3] 14.3% [at 42.5 µM] | activation [4, 8] 13% [at 42.5 µM] | activity change, negative = inhibition [5, 8] 8.36% [at 42.5 µM]

COP(C)(=O)OC
inactive: activation ([6]; at 66 µM (top of the series)) -3.41% and 0.558% | activity change, negative = cytotoxicity [1] 6.93% and 10.7% | Potency [7] | activity change, negative = inhibition ([2]; at 92.4 µM (top of the series)) 0.0763% and -7.34% | activation [3] 3.21% | activation [4, 8] 0.809% and 3.47% | activity change, negative = inhibition [5, 8] -6.85% and -11.7%

Cc1ccc([N+](=O)[O-])cc1[N+](=O)[O-]
inactive: activation ([6]; at 66 µM (top of the series)) -5.31% and -1.52% | activity change, negative = cytotoxicity [1] 1.34% and -11.6% | Potency [7] | activity change, negative = inhibition ([2]; at 92.4 µM (top of the series)) 11.5% | activation [4, 8] -10.4% | activity change, negative = inhibition [5, 8] 5.55%

COc1ccc([N+](=O)[O-])cc1[N+](=O)[O-]
inactive: activation ([6]; at 66 µM (top of the series)) 0.24% | activity change, negative = cytotoxicity [1] 6.17% | Potency [7] | activity change, negative = inhibition ([2]; at 92.4 µM (top of the series)) 0% | activation [4, 8] -2.09% | activity change, negative = inhibition [5, 8] -1.59%

O=[N+]([O-])c1cccc([N+](=O)[O-])c1
inactive: activation ([6]; at 66 µM (top of the series)) 8.09% | Potency [7] | activation [4, 8] -1.55% | activity change, negative = inhibition [5, 8] 0.0356%

[NH4+].[O-][Cl+3]([O-])([O-])[O-]
inactive: activity change, negative = cytotoxicity [1] -0.547% and -14.3% | activity change, negative = inhibition ([2]; at 92.4 µM (top of the series)) 7.22% and 0.242% | activation [3] 8.46% | activation [4, 8] 1.29% and -0.0234% | activity change, negative = inhibition [5, 8] -0.24% and 2.91%

Cc1ccc([N+](=O)[O-])c([N+](=O)[O-])c1
inactive: activation ([6]; at 66 µM (top of the series)) -11.8% and -1.34% | activity change, negative = cytotoxicity [1] 1.76% and 14.8% | activity change, negative = inhibition ([2]; at 92.4 µM (top of the series)) -0.517% and 4.82% | activation [4, 8] -0.776% and -7.45% | activity change, negative = inhibition [5, 8] 0.251% and -11.7%

CC(C)N(CCO)C(C)C
inactive: activation ([6]; at 66 µM (top of the series)) -0.02% | activity change, negative = cytotoxicity [1] 5.8% | Potency [7] | activity change, negative = inhibition ([2]; at 92.4 µM (top of the series)) 0.207% | activation [4, 8] -9.6% | activity change, negative = inhibition [5, 8] -2.26%
